Assay results: paper PMC6835155, “Lessons from LIMK1 enzymology and their impact on inhibitor design” (Biochemical Journal, 2019)

By UniProt entry, the sequences of proteins in these tests, tags left out. Residues count along the entry.
UniProt P53671, 330-632: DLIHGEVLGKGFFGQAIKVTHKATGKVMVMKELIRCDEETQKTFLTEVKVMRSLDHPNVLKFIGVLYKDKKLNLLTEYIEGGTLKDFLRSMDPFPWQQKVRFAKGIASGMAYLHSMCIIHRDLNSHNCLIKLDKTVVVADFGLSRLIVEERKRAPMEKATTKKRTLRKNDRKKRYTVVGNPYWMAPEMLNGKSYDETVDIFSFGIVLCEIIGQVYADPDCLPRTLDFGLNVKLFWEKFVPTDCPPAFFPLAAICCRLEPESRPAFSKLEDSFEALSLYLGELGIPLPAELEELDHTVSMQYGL
UniProt P53667, 330-637: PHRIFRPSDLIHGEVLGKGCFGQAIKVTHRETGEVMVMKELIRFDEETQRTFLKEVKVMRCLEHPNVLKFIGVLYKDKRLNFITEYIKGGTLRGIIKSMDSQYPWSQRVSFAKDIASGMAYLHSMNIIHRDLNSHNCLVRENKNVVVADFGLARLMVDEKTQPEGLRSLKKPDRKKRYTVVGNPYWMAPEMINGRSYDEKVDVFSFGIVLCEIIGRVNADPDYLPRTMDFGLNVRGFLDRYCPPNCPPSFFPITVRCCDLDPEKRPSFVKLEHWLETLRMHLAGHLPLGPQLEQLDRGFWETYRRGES

Columns and labels:
[1] = target: T1, LIMK2KD (Homo sapiens, UniProt P53671); test: Differential (dynamic) scanning fluorimetry (DSF) assay, LIMK2KD; type: binding; conditions: 10 µM
T1 construct: The cDNA coding for LIMK2 residues 330 to 632 was PCR amplified; His6 (N, cleaved yes); made in house; host or cells: baculovirus; Sf9 for virus, TriEx insect cells for expression

[2] = target: LIMK1KD (Homo sapiens, UniProt P53667); test: Differential (dynamic) scanning fluorimetry (DSF) assay, LIMK1KD

## CN1CC[C@H](c2c(O)cc(O)c3c(=O)cc(-c4ccccc4Cl)oc23)[C@H](O)C1.Cl [Flavopiridol HCl]
[1]
  TM Shift LIMK2 (K): 1.4 K
[2]
  TM Shift LIMK1 (K): 1.4 K
